Data on one compound can be found in patent publication US20250163119A1, “COMPOUNDS FOR THE TREATMENT OF DIABETES OR OBESITY” (Eli Lilly and Company, priority 2023, published 2025).

Each structure is given as a SMILES string. Bounds are passed on as bounds.

Type in all cases: cell-based
Assay [1] concerns the target T1, human CRHR2 (Homo sapiens, UniProt Q13324).
T1 construct: expressed in transfected cells
T1 sequence (Q13324 1-438 isoform Q13324-2): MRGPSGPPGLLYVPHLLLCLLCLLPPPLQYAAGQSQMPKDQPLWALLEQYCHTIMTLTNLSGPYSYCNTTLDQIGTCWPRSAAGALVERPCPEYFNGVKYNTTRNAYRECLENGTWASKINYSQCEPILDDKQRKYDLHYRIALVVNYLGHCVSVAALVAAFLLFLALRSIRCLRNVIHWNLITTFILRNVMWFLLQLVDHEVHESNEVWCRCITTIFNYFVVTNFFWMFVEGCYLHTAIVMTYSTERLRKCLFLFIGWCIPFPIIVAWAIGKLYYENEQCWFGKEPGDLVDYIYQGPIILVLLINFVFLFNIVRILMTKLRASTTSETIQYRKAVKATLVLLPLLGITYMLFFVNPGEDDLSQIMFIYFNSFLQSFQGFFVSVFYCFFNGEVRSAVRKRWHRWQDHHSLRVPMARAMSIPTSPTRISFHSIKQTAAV
The assay is described as follows: Human CRHR2 cAMP assay (HTRF) in HEK293 cells stably expressing human CRHR2. Conditions: HEK293 cells overexpressing human CRHR2; relative EC50, maximum 10 nM human UCN2; mean ± SE; read-out: hCRHR2 cAMP EC50 (pM, ± SE). The procedure: (§1) The corticotropin-releasing hormone (CRH) receptor 1 and 2 (CRHR1 and CRHR2) are GPCRs that were functionally coupled to Gs proteins. Stimulation of these receptors results in an increased production of intracellular cAMP, which can be detected using standard in vitro technologies. In vitro activity of peptides was measured by the amount of cAMP formed in human CRHR1 and CRHR2 overexpressed cells.
(§2) Human CRHR1 and CRHR2 receptors were stably expressed in human embryonic kidney cells (HEK293) under control of a pcDNA expression vector. The HEK293 cell line was cultured in DMEM 1× (Gibco, 93-0152DK) supplemented with 10% FBS, 1 mM sodium pyruvate, 1×MEM NEAA, 1× GlutaMAX and 10 mM HEPES. […] After 20 days under selection, the mRNA levels from different clones were measured to confirm the expression of human CRHR1 and CRHR2 genes. To determine the function of over-expressed CRHR cells, the intracellular cAMP levels in response to human UCN1 and UCN2 were measured and compared to the expression of CRHR1 and CRHR2 mRNA in each clone. […]
(§3) The amount of intracellular cAMP was quantitated using HTRF technology (Homogeneous Time Resolved Fluorescence; Cisbio) as per vendor instructions. […] The HTRF signal was immediately detected using an Envision plate reader (Perkin-Elmer) to calculate the ratio of fluorescence at 665 to 620 nm. […]
In general terms: cAMP levels reflect the balance of adenylyl cyclase and phosphodiesterase activity.

The target of assay [2] is T2, human CRHR1 (Homo sapiens, UniProt P34998).
T2 construct: expressed in transfected cells
T2 sequence (P34998 24-415): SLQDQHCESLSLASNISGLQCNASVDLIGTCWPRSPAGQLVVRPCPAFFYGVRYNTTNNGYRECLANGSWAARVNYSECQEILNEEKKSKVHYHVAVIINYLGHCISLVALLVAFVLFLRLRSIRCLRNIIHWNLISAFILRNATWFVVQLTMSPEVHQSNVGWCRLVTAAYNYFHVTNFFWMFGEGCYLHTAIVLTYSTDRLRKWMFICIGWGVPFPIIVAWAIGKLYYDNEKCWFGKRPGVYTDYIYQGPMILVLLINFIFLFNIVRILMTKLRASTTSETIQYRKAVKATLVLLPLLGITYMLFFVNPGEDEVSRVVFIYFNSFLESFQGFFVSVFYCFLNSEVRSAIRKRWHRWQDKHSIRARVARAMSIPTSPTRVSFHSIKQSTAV
The assay is described as follows: Human CRHR1 cAMP assay (HTRF) in HEK293 cells stably expressing human CRHR1. The note with it: HEK293 cells overexpressing human CRHR1; relative EC50, maximum 66 nM human UCN1; mean ± SE; read-out: hCRHR1 cAMP EC50 (pM, ± SE). As to the method:
as §1, §2, §3

Assay [3] deals with T3, CRHR1 receptor (Y79 cells) (Homo sapiens, UniProt P34998).
T3 construct: host or cells: Y79 human retinoblastoma cells
T3 sequence (P34998 24-415): T2 sequence (P34998 24-415)
Put plainly: Human Y79 cAMP assay (native cell line expressing endogenous CRHR1). Conditions: human Y79 cells (CRHR1, no detectable CRHR2); mean ± SE. The procedure:
Y79 cells, a human retinoblastoma cell line, express a high level of human CRHR1 with no detectable CRHR2. A7r5 cells, a rat aortic smooth muscle cell line, only express CRHR2 receptor with no detectable CRHR1. The rat CRHR2 gene shares 93% homology of nucleotides sequences with human CRHR2 and responds to human UCN2. Therefore, these two native cell lines were used for additional characterization of polypeptide selectivity.
Y79 cells were grown in a suspension culture as recommended by ATCC in the media containing RPMI (Gibco Cat #11875093) and 20% FBS (Gibco dialyzed Cat #26400044). Y79 cells were incubated at 37° C. with 5% CO2. A subcultivation was performed by removing the supernatant after centrifugation and suspending the cell pellet in fresh medium (A subcultivation ratio was 1:5). […]
as §3
Raw fluorescence data for concentration curves of the peptides in Table 2 and Table 3 were converted to cAMP amount (pmol/well) using a cAMP standard curve generated for each experiment.

What is called EC50 is the midpoint of the concentration-response curve. As for `CC[C@H](C)[C@H](N)C(=O)N[C@H](C(=O)N[C@@H](CC(C)C)C(=O)N[C@@H](CO)C(=O)N[C@@H](CC(C)C)C(=O)N[C@@H](CC(=O)O)C(=O)N[C@H](C(=O)N1CCC[C@H]1C(=O)N[C@H](C(=O)NCC(=O)N[C@@H](CC(C)C)C(=O)N[C@@H](CC(C)C)C(=O)N[C@@H](CCC(N)=O)C(=O)N[C@H](C(=O)N[C@@H](CC(C)C)C(=O)N[C@@H](CC(C)C)C(=O)N[C@@H](CCC(=O)O)C(=O)N[C@@H](CCC(N)=O)C(=O)N[C@@H](C)C(=O)N[C@@H](CCCNC(=N)N)C(=O)N[C@@H](C)C(=O)N[C@@H](CCCNC(=N)N)C(=O)N[C@@H](C)C(=O)N[C@@H](C)C(=O)N[C@@H](CCCNC(=N)N)C(=O)N[C@@H](CCC(=O)O)C(=O)N[C@@H](CCC(N)=O)C(=O)N[C@@H](C)C(=O)N[C@H](C(=O)N[C@H](C(=O)N[C@@H](CC(N)=O)C(=O)N[C@@H](C)C(=O)N[C@@H](CCCNC(=N)N)C(=O)N[C@H](C(=O)N[C@@H](CC(C)C)C(=O)N[C@@H](C)C(=O)N[C@@H](CCCNC(=N)N)C(=O)N[C@H](C(N)=O)C(C)C)[C@@H](C)CC)[C@@H](C)O)[C@@H](C)O)[C@@H](C)CC)[C@@H](C)CC)C(C)C)C(C)C` [SEQ ID NO: 53, reference compound], the EC50 was 24.5 ± 1.6 pM in assay [1], greater than 1e+07 pM in assay [2] and greater than 1e+07 pM in assay [3].
